≈ marks a conversion by molar mass, not a printed value.

Drawing on patent publication US9439918B2 (priority 2008, dated 2016), this text covers MIC50 ranges for 2 compounds.

This assay relates to Salmonella, Shigella and C. jejuni. It counts as cell-based.

Take `CC[C@H]1OC(=O)[C@H](C)C(=O)[C@H](C)[C@@H](O[C@@H]2O[C@H](C)C[C@H](N(C)C)[C@H]2O)[C@](C)(OC)C[C@@H](C)C(=O)[C@H](C)[C@H]2N(CCCCn3cnc(-c4cccnc4)c3)C(=O)O[C@]12C` [TEL, telithromycin]: the MIC50 ranges lay in the range of 8 to 16 µg/mL. In the case of `CC[C@H]1OC(=O)[C@H](C)[C@@H](O[C@H]2C[C@@](C)(OC)[C@@H](O)[C@H](C)O2)[C@H](C)[C@@H](O[C@@H]2O[C@H](C)C[C@H](N(C)C)[C@H]2O)[C@](C)(O)C[C@@H](C)CN(C)[C@H](C)[C@@H](O)[C@]1(C)O` [AZI, azithromycin] it was 4 µg/mL (≈ 5.34 µM).
